The target in assay [1] is T1, Mu-type opioid receptor (Homo sapiens, UniProt P35372). Briefly: Displacement of [3H]DAMGO from human MOR expressed in CHO cell membranes after 60 mins. On the technique in general: Loss of bound radioactivity is the signal in a displacement assay; it reports binding, not function.
The target of assay [2] is T1, Mu-type opioid receptor. Briefly: Agonist activity at human MOR expressed in CHO cell membranes after 60 mins by [35S]GTP-gamma-S binding assay. In outline:
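[35S]GTP-γ-S binding read-out of G-protein activation. Each compound assayed three times, with values given as mean ± standard error of the mean.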

By UniProt entry, the sequences of proteins in these tests, tags left out.
UniProt P35372, whole entry: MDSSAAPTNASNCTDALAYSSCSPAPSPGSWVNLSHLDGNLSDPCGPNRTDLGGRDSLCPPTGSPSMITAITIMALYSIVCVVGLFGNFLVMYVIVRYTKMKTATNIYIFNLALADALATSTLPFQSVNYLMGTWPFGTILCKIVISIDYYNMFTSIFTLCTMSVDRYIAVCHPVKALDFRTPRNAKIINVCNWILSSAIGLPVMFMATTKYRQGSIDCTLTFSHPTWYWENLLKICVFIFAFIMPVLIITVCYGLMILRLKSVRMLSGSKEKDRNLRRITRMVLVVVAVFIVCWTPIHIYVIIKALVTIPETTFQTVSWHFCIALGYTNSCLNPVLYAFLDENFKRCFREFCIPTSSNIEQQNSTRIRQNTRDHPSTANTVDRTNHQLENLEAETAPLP

Assay [3] deals with T1, Mu-type opioid receptor. As to the kind of experiment: Displacement of [3H]naloxone from human MOR expressed in CHO-K1 cell membranes after 60 mins by microbeta scintillation counting method. It counts as cell-based.

As to `CN(C)C[C@H]1CCCC[C@]1(O)c1cccc(O)c1` (racemic) [O-DESMETHYL TRAMADOL], the Ki – broadly, the dissociation constant of the complex between target and ligand, obtained from inhibition or displacement – was determined as 13 nM on Mu-type opioid receptor [1] and 11 nM at Mu-type opioid receptor [3]. The midpoint of the response at Mu-type opioid receptor [2], the EC50, lay at 240 nM.

The record behind these values is ChEMBL document CHEMBL3808393, “Discovery of Potent and Selective Agonists of δ Opioid Receptor by Revisiting the "Message-Address" Concept” (ACS Med Chem Lett, 2016).
